In US8956996B2, “Method for reducing nitrous oxide emission from soils” (BASF SE, priority 2009, dated 2015):
Only a part of the results on these compounds is given; other tests are left out.

Test system: N2O emission from soils
Test: Greenhouse trial: N2O emission from potted field soil planted with summer wheat (Example 4)
Type: in vivo
Settings: fertilizer (ammonium nitrate 100 kg/ha) alone; sampled over 4 weeks; UTC 83.0

ammonium nitrate
Mean mg N2O-N/m^2: 291.6 mg N2O-N/m^2
